Reference: ChEMBL document CHEMBL4414562, “Discovery of the First in Vivo Active Inhibitors of the Soluble Epoxide Hydrolase Phosphatase Domain” (J Med Chem, 2019)

Protein sequences, listed by entry. Tags and fused reporters are not part of them.
UniProt P23219, whole entry: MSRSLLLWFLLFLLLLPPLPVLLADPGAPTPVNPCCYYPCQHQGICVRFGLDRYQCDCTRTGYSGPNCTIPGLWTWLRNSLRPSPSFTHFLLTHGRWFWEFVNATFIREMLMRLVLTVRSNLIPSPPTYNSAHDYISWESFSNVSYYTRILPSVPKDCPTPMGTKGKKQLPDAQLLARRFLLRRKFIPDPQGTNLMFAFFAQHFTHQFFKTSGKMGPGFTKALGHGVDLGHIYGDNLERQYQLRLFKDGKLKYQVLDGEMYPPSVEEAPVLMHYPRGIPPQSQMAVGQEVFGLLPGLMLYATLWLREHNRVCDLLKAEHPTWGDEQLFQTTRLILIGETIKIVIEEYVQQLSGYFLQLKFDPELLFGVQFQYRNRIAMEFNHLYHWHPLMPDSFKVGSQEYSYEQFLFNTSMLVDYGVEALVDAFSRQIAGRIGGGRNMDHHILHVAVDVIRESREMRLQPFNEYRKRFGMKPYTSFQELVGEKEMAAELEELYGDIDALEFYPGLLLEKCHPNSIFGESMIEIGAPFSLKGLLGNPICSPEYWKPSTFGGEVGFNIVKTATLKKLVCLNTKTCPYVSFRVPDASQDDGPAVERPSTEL

Biological target: Prostaglandin G/H synthase 1 (Homo sapiens, UniProt P23219)
Assay: Inhibition of COX1 in A23187-stimulated human platelets assessed as reduction in TXA2 production
Outline: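 Washed human platelets preincubated with increasing compound concentrations, then challenged with calcium ionophore A23187. TXB2 (stable TXA2 metabolite) in supernatant quantified by LC−MS/MS with TXB2-d4 internal standard.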

Structure (SMILES): O=C(O)CCc1nc(-c2ccccc2)c(-c2ccccc2)o1 [OXAPROZIN]
- pIC50: 6.13

pIC50: −log10 of the molar value.
